# Where two headings read alike, the source gives them in different places.
# Amino acid sequences for entries named in this document (tags omitted). Residues count along the entry.
# UniProt P21802, 22-821: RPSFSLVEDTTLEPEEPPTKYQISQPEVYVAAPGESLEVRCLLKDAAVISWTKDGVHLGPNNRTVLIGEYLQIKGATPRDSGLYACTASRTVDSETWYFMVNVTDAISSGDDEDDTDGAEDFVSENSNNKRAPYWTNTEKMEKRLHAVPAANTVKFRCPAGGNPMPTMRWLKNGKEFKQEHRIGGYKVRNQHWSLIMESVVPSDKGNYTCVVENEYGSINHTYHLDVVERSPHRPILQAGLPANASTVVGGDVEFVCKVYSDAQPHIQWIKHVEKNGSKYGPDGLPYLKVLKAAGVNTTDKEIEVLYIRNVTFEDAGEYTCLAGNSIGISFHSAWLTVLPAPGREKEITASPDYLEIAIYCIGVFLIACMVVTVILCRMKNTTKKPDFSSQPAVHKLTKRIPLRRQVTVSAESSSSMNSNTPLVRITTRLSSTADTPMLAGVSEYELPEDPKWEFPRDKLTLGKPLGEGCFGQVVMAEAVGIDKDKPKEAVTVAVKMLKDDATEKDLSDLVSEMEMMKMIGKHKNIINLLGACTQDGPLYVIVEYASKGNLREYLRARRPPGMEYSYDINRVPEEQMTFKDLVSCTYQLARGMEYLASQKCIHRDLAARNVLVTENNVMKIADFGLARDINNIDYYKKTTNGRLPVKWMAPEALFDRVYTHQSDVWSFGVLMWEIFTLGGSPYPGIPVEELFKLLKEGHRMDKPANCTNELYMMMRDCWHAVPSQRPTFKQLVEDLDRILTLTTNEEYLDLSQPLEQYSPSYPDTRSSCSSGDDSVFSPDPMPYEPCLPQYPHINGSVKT
# Target: Wild type FGFR2 (Homo sapiens (Human), UniProt P21802)
# Test: FGFR2 kinase assay (fluorescence-based microfluidic mobility shift assay)
# Assay type: biochemical
Structure (SMILES),IC50,"IC50 (wild type FGFR2 0.06 nM, 100 μM ATP, 80 minutes at room temperature, class symbols)"
"C=CC(=O)N1C[C@@H](n2nc(C#Cc3cc4ncn([C@@H]5CC5(F)F)c4cc3F)c(C(N)=O)c2NC)C[C@@H]1COC (single isomer, unassigned) [Example 272]",< 100 nM,–
"C=CC(=O)N1C[C@@H](n2nc(C#Cc3ccc4c(c3)nc(N)n4C)c(C(N)=O)c2NC)C[C@@H]1COC [Example 49, 3-[2-(2-Amino-1-methyl-1,3-benzodiazol-5-yl)ethynyl]-1-[(3S,5R)-5-(methoxymethyl)-1-(prop-2-enoyl)pyrrolidin-3-yl]-5-(methylamino)pyrazole-4-carboxamide]",–,≤ 100 nM
"C=CC(=O)N1C[C@@H](n2nc(C#Cc3cc4ncc(C)c(C)c4cc3F)c(C(N)=O)c2NC)C[C@@H]1COC [Example 282, 1-((3S,5R)-1-Acryloyl-5-(methoxymethyl)pyrrolidin-3-yl)-3-((6-fluoro-3,4-dimethylquinolin-7-yl)ethynyl)-5-(methylamino)-1H-pyrazole-4-carboxamide]",< 100 nM,–

# Reference: patent US11345681B1, “Inhibitors of fibroblast growth factor receptor kinases” (Kinnate Biopharma Inc., priority 2020, dated 2022)
